From patent publication US8669291B2, “Phenyl substituted cycloalkylamines as monoamine reuptake inhibitors” (Sunovion Pharmaceuticals Inc., priority 2007, dated 2014)

Amino acid sequences for entries named in this document (tags omitted).
UniProt P23975, whole entry: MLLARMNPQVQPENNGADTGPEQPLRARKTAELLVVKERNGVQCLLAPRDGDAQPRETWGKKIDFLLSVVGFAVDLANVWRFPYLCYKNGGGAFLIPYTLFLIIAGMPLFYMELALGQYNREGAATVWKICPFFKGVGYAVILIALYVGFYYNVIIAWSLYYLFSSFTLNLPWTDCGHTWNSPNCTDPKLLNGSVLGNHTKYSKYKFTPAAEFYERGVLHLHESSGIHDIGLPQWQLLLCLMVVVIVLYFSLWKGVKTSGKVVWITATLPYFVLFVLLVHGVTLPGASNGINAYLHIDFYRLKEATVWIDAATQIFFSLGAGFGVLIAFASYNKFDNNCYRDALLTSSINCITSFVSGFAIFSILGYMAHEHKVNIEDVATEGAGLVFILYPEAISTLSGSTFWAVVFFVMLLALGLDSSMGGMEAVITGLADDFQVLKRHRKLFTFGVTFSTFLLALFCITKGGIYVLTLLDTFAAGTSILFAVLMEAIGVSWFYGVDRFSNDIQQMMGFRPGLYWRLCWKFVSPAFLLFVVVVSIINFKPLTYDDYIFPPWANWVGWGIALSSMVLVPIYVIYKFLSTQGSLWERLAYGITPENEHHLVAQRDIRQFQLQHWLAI
UniProt Q01959, whole entry: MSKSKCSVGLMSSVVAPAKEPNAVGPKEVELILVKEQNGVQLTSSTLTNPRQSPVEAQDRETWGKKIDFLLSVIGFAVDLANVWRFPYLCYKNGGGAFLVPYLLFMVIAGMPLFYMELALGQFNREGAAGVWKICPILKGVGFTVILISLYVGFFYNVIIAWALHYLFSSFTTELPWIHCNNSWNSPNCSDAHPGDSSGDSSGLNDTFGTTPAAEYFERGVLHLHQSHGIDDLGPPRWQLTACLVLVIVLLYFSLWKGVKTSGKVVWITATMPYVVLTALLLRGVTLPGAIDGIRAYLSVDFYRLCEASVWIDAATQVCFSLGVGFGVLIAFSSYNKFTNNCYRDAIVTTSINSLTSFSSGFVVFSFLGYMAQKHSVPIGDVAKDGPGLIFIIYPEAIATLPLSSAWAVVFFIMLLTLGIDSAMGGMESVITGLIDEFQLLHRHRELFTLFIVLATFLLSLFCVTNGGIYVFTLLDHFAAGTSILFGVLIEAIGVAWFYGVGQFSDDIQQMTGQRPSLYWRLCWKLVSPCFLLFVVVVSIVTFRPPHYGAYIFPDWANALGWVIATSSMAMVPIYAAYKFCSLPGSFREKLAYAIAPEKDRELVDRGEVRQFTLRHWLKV
UniProt P31645, whole entry: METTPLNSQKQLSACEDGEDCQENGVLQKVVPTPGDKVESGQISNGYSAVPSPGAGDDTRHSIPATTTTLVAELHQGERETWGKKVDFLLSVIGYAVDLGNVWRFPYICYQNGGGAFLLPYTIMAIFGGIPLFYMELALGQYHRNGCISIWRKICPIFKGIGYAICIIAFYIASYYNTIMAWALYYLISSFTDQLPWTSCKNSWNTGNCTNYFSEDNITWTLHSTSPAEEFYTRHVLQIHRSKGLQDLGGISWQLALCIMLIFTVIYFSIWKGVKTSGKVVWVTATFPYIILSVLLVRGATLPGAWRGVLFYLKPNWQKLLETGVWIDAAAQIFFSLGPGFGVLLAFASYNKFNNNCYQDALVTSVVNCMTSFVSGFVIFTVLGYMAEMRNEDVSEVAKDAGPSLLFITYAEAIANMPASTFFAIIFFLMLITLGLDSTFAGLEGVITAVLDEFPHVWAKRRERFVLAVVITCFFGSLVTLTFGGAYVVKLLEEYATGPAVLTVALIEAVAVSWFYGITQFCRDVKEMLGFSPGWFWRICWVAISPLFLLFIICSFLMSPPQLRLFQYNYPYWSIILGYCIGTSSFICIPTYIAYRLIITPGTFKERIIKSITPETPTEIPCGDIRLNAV

How the values were obtained:
[1] = molecular target: human norepinephrine (NE) reuptake transporter (Homo sapiens, UniProt P23975); assay: functional uptake assay, human NE reuptake transporter; details: read-out: NE IC50 nM; Example 6 summary of selected in vitro data
[2] = molecular target: human dopamine (DA) reuptake transporter (Homo sapiens, UniProt Q01959); assay: functional uptake assay, human DA reuptake transporter; details: read-out: DA IC50 nM; Example 6 summary of selected in vitro data
[3] = molecular target: human serotonin (5-HT) reuptake transporter (Homo sapiens, UniProt P31645); assay: functional uptake assay, human 5-HT reuptake transporter; details: read-out: 5-HT IC50 nM; Example 6 summary of selected in vitro data

SMILES	IC50 [1] [nM]	IC50 [2] [nM]	IC50 [3] [nM]
COC1(c2ccc(Cl)c(Cl)c2)CCCCC1CN(C)C (stereo not drawn)	201 to 1000	10 to 200	2000 to 7000
CN(C)C[C@@H]1CCCC[C@@]1(O)c1ccc(F)c(Cl)c1 (single isomer, unassigned)	10 to 200	201 to 1000	2000 to 7000
CN(C)C[C@H]1CCCC[C@]1(O)c1ccc(F)c(Cl)c1 (single isomer, unassigned)	1000 to 5000	5000 to 10000	1 to 2000
CNC[C@@H]1CCCC[C@@]1(OC)c1ccc(Cl)c(Cl)c1 (single isomer, unassigned)	201 to 1000	10 to 200	2000 to 7000
CO[C@@]1(c2ccc(Cl)c(Cl)c2)CCCC[C@H]1CN(C)C (single isomer, unassigned)	201 to 1000	10 to 200	1 to 2000
